Literature values, collected in patent US20260038709A1 (priority 2020, published 2026).

What was measured:
[1] = prior art; cited from earlier work
[2] = prior art; cited from earlier work; remark: listed apart in the source

For fluoroketone (C5F10O), the “Acute inhalation toxicity (LC50 4 h)” value [1] is given as “about 20,000 ppmv” and the Boiling point [2] is given as 26.5 °C.
